Series [1] can be described thus: Toxicity in Sprague-Dawley rat xenografted with human MV4-11 cells at 120 mg/kg, po administered daily for 21 days. In kind it is organism-based. The conditions noted are these: in vivo, 504 h, time 21 day. A general note: A xenograft is tissue or cells of one species grown in another, often human tumour cells in immunodeficient mice.
Series [2] deals with Mitogen-activated protein kinase; ERK1/ERK2 (Homo sapiens) (UniProt P27361+P28482). The series is described as follows: Inhibition of ERK1/2 phosphorylation in human MV4-11 cells at 0.1 to 1 uM incubated for 24 hrs by Western blot analysis. The format is cell-based. The conditions noted are these: dose 0.1-1 µM. Background: Immunoblotting shows a protein as a band on a membrane.

By UniProt entry, the sequences of proteins in these tests, tags left out.
UniProt P27361, whole entry, looked up: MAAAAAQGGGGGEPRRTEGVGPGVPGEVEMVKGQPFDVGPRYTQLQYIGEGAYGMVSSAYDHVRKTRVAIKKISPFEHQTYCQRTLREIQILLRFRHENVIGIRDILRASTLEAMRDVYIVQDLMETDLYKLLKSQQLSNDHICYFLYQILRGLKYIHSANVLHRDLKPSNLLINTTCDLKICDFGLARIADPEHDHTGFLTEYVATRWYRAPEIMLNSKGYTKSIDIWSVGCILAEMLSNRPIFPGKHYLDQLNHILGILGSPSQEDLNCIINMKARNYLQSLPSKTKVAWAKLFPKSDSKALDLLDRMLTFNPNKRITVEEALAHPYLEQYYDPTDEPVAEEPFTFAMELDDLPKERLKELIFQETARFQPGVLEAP
UniProt P28482, whole entry, looked up: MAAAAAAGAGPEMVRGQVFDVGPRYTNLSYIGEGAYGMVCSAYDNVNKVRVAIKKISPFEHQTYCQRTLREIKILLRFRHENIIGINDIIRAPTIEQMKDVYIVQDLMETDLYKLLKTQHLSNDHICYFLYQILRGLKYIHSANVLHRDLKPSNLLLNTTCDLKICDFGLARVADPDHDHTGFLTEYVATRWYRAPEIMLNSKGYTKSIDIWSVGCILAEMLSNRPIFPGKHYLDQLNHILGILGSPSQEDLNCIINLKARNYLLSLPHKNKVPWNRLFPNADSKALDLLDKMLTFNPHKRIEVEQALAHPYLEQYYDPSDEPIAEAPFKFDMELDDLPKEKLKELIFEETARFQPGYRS

Activity calls are given as the source filed them. The calls are words filed in the database; no cut-off is given here.

`COc1ccc2c(c1)nc(NCCCCNC(=O)CC(C)C)c1nnc(C)n12`: in series [1], the Activity entry was “Non-Toxic”. Moreover, the inhibition result in series [2] is “Active”.

The values above are taken from ChEMBL document CHEMBL5543069, “DW71177: A novel [1,2,4]triazolo[4,3-a]quinoxaline-based potent and BD1-Selective BET inhibitor for the treatment of acute myeloid leukemia” (Eur J Med Chem, 2024).
